The nature of data set [1]: Degradation and NO/HNO release under (simulated) physiological conditions. The following applies: for release of NO or HNO: physiological conditions (temperatures and pHs).
Data set [2] is described as follows: Maximum tolerated dose (MTD) study. Particulars: SCID mice, intratracheal, once daily for 3 consecutive days.
Data set [3] in a line: Nitric oxide release measured by chemiluminescence-based nitric oxide analyzer (NOA).

These results are taken from patent US11813270B2, “Nitric oxide-releasing antibacterial compounds, formulations, and methods pertaining thereto” (KNOW BIO, LLC, priority 2020, dated 2023).

Turning to `[O-]/[N+](C/[N+]([O-])=N\O)=N\O`, the results for the “release of NO or HNO” value in data set [1] and in data set [1] (listed as Methane bis-diazeniumdiolate) were “does not release NO or HNO” and “does not release NO or NHO”, respectively. Further, the degradation result in data set [1] (simulated physiological conditions) is recorded as “does not degrade to any significant degree”.

For the molecule “methane trisdiazeniumdiolate sodium salt”, the “clinical condition of mice” value in data set [2] (1-100 mg/kg, throughout the study) is “bright, alert, and responsive”. The adverse effects result in data set [2] (up to maximum dose group 6 (100 mg/Kg)) is on record as “No adverse effects were observed”. Moreover, in data set [3] (combined composition of β-cyclodextrin and MTDD), the NO-loading worked out at 6.7 µmol/mg. Further, the “NO released per 1 mole (described degradation pathway)” value in data set [3] (described degradation pathway) was 2 mol. For the same molecule, in data set [3] (experimental results), the “moles of NO released by one mole of compound” value is given as “approximately 2 moles”. Also, the “NO released (NO release profile)” value in data set [3] (pH 7.4, chemiluminescence) came out at 6.7 μmol NO/mg. Also, in data set [3] (physiological conditions (37° C., pH 7.4)), the “NO radicals generated by 1 mole of compound” value is “two moles of NO radicals”. For the same molecule, the “theoretical NO load / theoretical yield” value in data set [3] (single diazeniumdiolate group, 2 moles NO per mole) was determined as 7.6 μmol NO/mg. In addition, the “NO Load” value in data set [3] (unit not given) amounted to 6.7.
